The chains behind the UniProt entries cited, without tags or fusion partners.
UniProt Q16539, whole entry: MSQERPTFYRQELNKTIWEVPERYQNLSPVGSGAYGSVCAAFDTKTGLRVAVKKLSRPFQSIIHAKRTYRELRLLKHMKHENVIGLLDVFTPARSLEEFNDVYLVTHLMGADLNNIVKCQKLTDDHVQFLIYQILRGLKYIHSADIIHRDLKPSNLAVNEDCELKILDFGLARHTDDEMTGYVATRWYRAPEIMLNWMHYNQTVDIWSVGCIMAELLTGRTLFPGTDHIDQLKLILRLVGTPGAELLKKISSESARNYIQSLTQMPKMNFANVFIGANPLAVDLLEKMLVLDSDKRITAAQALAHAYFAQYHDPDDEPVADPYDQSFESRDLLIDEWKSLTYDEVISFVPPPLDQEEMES

In this experiment the target is p38 MAP kinase (Homo sapiens, UniProt Q16539). The experiment can be described thus: p38 MAP Kinase Assay (33P incorporation into myelin basic protein, filter plate).
The IC50 is the midpoint of a concentration-inhibition curve. A lower IC50 goes with greater potency. Take `CC(C)(CO)Nc1ccc(OCc2c(Cl)cccc2Cl)cn1` [Compound 74]: the concentration for half-maximal inhibition (IC50) is below 200 µM. The same measure for `OCCNc1ccc(OCc2c(Cl)cccc2Cl)cn1` [Compound 48]: below 200 µM; for `c1ccc(COc2cccnc2)cc1` [Compound 7, 3-Benzyloxypyridine]: below 2000 µM; for `Nc1ncccc1OCc1cccc2ccccc12` [Compound 5, 2-amino-3-(1-naphthylmethyloxy)pyridine]: below 200 µM.

Values taken from patent US20060063782A1, “3-Hetero arylmethoxy ! pyridines and their analogues as p38 map kinase inhibitors” (priority 2002, published 2006).
